Values quoted from earlier work, collected in patent US8916150B2 (priority 2009, dated 2014).

Conditions: in vivo

Substance: phytate
- amount of oral zinc whose absorption may be inhibited: up to 50 mg
